Test results from ChEMBL document CHEMBL1145574, “Carbonic anhydrase inhibitors: Inhibition of the new membrane-associated isoform XV with phenols” (Bioorg Med Chem Lett, 2008).

Columns and labels:
[1] = molecular target: Carbonic anhydrase 2 (Homo sapiens, UniProt P00918)
[2] = molecular target: T1, Carbonic anhydrase 15 (Mus musculus, UniProt Q99N23)
T1 sequence (Q99N23 whole entry): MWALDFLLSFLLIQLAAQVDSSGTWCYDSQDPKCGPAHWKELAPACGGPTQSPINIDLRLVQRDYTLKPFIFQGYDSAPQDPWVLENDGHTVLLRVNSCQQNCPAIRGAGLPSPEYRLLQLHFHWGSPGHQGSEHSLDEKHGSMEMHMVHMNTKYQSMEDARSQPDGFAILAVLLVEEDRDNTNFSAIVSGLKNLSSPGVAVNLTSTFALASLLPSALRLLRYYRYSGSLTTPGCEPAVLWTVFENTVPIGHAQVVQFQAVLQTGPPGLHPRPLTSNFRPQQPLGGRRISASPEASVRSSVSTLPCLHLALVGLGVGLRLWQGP

| Ki [1] [µM] | Compound | Ki [2] [µM] |
| --- | --- | --- |
| 10.6 | O=C(O)c1ccc(O)cc1 [PARABEN] | – |
| – | O=C(O)c1ccccc1O [SALICYLIC ACID] | 7.2 |
